Chains of the proteins cited; added tags and fusions are not shown. Lines headed by an entry give the natural chain unless they say otherwise; changes in a name come on top.
UniProt P22411: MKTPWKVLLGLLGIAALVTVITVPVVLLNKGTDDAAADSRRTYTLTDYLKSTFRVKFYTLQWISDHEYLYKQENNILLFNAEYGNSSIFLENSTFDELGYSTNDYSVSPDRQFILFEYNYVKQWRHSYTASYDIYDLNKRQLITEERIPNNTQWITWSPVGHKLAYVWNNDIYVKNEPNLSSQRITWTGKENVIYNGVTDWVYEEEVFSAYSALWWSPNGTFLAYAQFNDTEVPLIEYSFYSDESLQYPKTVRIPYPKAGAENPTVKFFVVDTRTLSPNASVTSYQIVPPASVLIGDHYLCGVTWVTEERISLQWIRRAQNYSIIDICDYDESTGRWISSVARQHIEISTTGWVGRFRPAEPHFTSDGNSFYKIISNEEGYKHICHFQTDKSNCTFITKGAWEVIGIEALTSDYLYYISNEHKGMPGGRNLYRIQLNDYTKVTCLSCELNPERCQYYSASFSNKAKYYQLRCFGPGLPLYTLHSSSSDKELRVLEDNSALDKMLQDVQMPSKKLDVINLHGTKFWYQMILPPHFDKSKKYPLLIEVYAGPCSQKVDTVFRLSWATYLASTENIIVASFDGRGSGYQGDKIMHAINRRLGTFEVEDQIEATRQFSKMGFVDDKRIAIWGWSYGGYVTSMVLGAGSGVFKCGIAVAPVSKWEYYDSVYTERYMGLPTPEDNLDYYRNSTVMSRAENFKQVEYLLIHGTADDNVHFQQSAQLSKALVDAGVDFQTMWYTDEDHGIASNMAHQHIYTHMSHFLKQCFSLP

According to article PMC9032570, “Flavonoids and Phenols, the Potential Anti-Diabetic Compounds from Bauhinia strychnifolia Craib. Stem” (Molecules, 2022):

Biological target: T1, dipeptidyl peptidase-IV (DPP-IV) from porcine kidney (Sus scrofa, UniProt P22411)
T1 construct: purchased Sigma Aldrich Inc. (St. Louis, MO. USA); host or cells: porcine kidney (tissue-derived enzyme)
Assay: Dipeptidyl peptidase-IV (DPP-IV) inhibitory assay (GP-p-NA substrate)
Assay type: biochemical
Text: Folin–Ciocalteu reagent was bought from Merck (Darmstadt, Germany). Fetal bovine serum (FBS), penicillin-streptomycin, Dulbecco’s Modified Eagle Medium, high glucose (DMEM, high glucose), Roswell Park Memorial Institute (RPMI) 1640 medium, trypsin-EDTA, trypan blue dyes, and 3-(4,5-dimethylthiazol-2-yl)-2,5 diphenyltetrazolium bromide (MTT) were obtained from Thermo Fisher Scientific (Waltham, CA, USA). Ethanol, methanol, hexane, dichloromethane, ethyl acetate, and acetone (as analytical grades) were purchased from Labscan Asia Co., Bangkok, Thailand.
The DPP-IV inhibition activities of crude extract, partitioned fractions, and isolated pure compounds were investigated, following the procedure of Van et al. (2009) and Al-Masri et al. (2009), with some modifications. Concisely, 40 µL of each sample diluted in 50 mM Tris-HCl buffer, pH 8.0 (at final concentration 50 ug/mL), was pre-incubated with 30 µL of 0.05 U/mL of DPP-IV enzyme at 37 °C. […] Then, the reaction was terminated with 30 µL of 25% acetic acid, and the absorbance at 405 nm was suddenly measured by a microplate reader (DTX880 Multimode Detector, Beckman Coulter®, Wein, Austria). The percentage of inhibition was calculated, following the formula: [(Acontrol − Asample)/Acontrol] × 100, where Acontrol and Asample were the absorbances of reaction with and without sample, respectively. […]

IC50: 3.34 µM
IC50 (molar value, in parentheses in Table 3): 3.26 µM
SMILES: CC[C@H](C)[C@H](N)C(=O)N1CCC[C@H]1C(=O)N[C@H](C(=O)O)[C@@H](C)CC [Diprotin A, diprotin A, reference compound]

Where two headings read alike, the source gives them in different places.
